Data on one substance can be found in patent US12702478B2, “Devices, methods, and compositions for thermal acceleration and drug delivery” (Rhode Island Hospital, priority 2015, dated 2026).

Where two headings read alike, the source gives them in different places.

Series [1] is described as follows: Dielectric properties by open-ended coaxial measurement. Format: physicochemical. The source says: Materials or formulations with a high dipole moment as potential thermal accelerants can be expressed by the ε″ and σ values for thermal ablation (radiofrequency, microwave, irreversible electroporation. A person skilled in the art will recognize that in order to show the capacity of a material, or formulations of a material, quantitatively as a thermal accelerant, the concept of permittivity can be employed in lieu of, or in addition to, evaluation of dipole moment. For example, materials can be tested using an electromagnetic wave of sinusoidal frequency ω, which is directed at a subject sample by an open-ended coaxial cable of a low-power oscillator. Measurement of the magnitude and phase of the fraction of the wave which is reflected allows deduction of the complex permittivity of the tissue.
The complex permittivity is defined as ε*=ε′−jε″, where ε′ is the real permittivity and ε″ is the imaginary permittivity. […] The real permittivity is also known as the dielectric constant. The imaginary permittivity is also called the loss factor and can be written ε″=σ/(ωε0), so as to incorporate the electrical conductivity of the material, […]. The quantity a directly scales the power deposited per unit volume according to the following expression, ARD=σ|E|^2, where ARD is Absorption Rate Density (watt m^−3), […] is electrical conductivity (ohm^−1 m^−1), and JEJ is the magnitude of the electrical field (volt m^−1) produced by the microwave antenna at the point of interest in the tissue.

For series [2] the following is noted: cited from earlier work.

In the case of “albumin: serum albumin, globular blood protein, ca. 66-67 kDa; carrier polymer of the TA”, the entries for the “Dielectric constant (ε′)” value in series [1] (915 MHz) and in series [1] (2450 MHz) were 30.7 and 37.9, respectively. Also, the “electrical conductivity (σ)” value is given as 0.52 mho/m in series [1] (915 MHz) and 1.12 in series [1] (2450 MHz). Further, the “coagulation (denaturation) temperature” value in series [2] (pH 3.5) was 46 °C; in series [2] (pH 7.4) it was 62 °C.
